Test results: patent publication US12650422B2, “Utility of protein in the prediction of in vivo effects” (Qualyst Transporter Solutions, LLC, priority 2014, dated 2026)

The chains behind the UniProt entries cited, without tags or fusion partners.
UniProt P11712, whole entry: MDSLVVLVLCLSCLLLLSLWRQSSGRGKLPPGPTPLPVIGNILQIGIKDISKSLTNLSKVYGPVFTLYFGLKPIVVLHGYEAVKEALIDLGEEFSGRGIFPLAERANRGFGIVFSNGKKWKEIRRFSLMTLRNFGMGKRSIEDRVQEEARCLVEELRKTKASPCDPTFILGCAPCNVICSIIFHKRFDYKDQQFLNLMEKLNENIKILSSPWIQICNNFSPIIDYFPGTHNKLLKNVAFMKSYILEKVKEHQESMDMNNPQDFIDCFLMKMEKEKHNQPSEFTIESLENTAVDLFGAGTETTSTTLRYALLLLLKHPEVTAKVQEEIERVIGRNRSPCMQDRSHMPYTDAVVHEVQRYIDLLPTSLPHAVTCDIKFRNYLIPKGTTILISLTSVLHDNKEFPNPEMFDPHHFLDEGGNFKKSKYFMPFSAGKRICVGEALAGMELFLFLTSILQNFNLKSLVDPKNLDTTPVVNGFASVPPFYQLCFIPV

Legend:
Rat Hepatocytes = test: Hepatic intracellular concentration (ICC) in rat hepatocytes, observed vs predicted; format: in vitro ADME; conditions: 1 μM; for Predicted ICC (uM) HBSS: absence of protein (HBSS), adjusted with free fraction of Table 1; for Observed ICC (uM) BSA: one-step method with BSA
Description: The hepatic intracellular concentration (ICC) of a compound, which reflects the balance of the uptake, metabolism, and efflux out of the cell, can also be determined in the absence and presence of protein.

CYP2C9 = CYP2C9 (Homo sapiens, UniProt P11712); test: cell-based; conditions: Estimated IC50 (μM)
Description: Sandwich-Cultured Hepatocytes (SCH) were prepared using freshly isolated hepatocytes or cryopreserved hepatocytes. Freshly isolated hepatocytes were plated on 24-well cell culture plates, rinsed and fed with the appropriate species specific Qualyst Transporter Solutions (QTS, Durham, North Carolina, United States of America) propriety culture medium (QualGro™). Cells were maintained in the appropriate species specific medium until consumed in studies.
Cryopreserved hepatocytes were thawed following manufacturer's thawing instructions. Cryopreserved hepatocytes were subsequently suspended in QTS propriety hepatocyte seeding medium (QualGro™ Seeding Medium) at a density of 0.7-0.8 million viable cells/mL onto BioCoat® 24-well cell culture plates. Following plating, cells were allowed to attach for 2-4 hours, rinsed and fed with warm (37° C.) seeding medium. Eighteen to 24 hours later, cells were fed and overlaid with the appropriate species specific QTS propriety culture medium (QualGro™) supplemented with extracellular matrix (ECM), Matrigel® (0.25 mg/mL). Cells were maintained in QualGro™ Hepatocyte Culture Medium until consumed in studies.
Cells were cultured as described above through day 6 of culture. […]
In situ incubations were analyzed for the detection of P450 mediated metabolite formation of hydroxymidazolam from midazolam and hydroxyibuprofen from ibuprofen. […]

| SMILES | Predicted ICC (uM) HBSS (Rat Hepatocytes) [µM] | Observed ICC (uM) BSA (Rat Hepatocytes) [µM] | IC50 (CYP2C9; 4% BSA) [µM] | IC50 (CYP2C9; No BSA) [µM] |
| --- | --- | --- | --- | --- |
| O=C(O)C[C@H](O)C[C@H](O)/C=C/c1c(C2CC2)nc2ccccc2c1-c1ccc(F)cc1 [Pitavastatin] | 1.29 | 4.15 |  |  |
| CC[C@H](C)C(=O)O[C@H]1C[C@H](O)C=C2C=C[C@H](C)[C@H](CC[C@@H](O)C[C@@H](O)CC(=O)O)[C@H]21 [Pravastatin] | 1.10 | 2.36 |  |  |
| OC(Cn1cncn1)(Cn1cncn1)c1ccc(F)cc1F [Fluconazole] |  |  | 27.1 | 56.2 |
